This is an account of results in patent publication US4889861A, “Substituted imidazo[1,5-a]pyridine derivatives and other substituted bicyclic derivatives and their use as aromatase inhibitors” (Ciba-Geigy Corp., priority 1987, dated 1989).

Molecules are shown by their SMILES.

The test system of this assay is aromatase. Kind of assay: in vivo inhibition of aromatase activity: suppression of ovarian estrogen content of PMS-hCG primed female rats. As to conditions: Rattus norvegicus, po.

One may read the minimal effective dose as the smallest amount tested that counted as effective. Read a high minimal effective dose as a need for much substance. The compound `N#Cc1ccc(C2CCc3cncn32)cc1` (stereo not shown) [Example 31, 5H-5-(4-cyanophenyl)-6,7-dihydropyrrolo[1,2-c]imidazole] had a minimal effective dose of 0.025 mg/kg.
